Experimental data taken from PMC4821887, “Identification of chemicals that mimic transcriptional changes associated with autism, brain aging and neurodegeneration” (Nature Communications, 2016).

Test system: mouse cortical neuron cultures
Assay: Live/dead cytotoxicity assay (NucBlue / SYTOX Green)

O=C1C2CC=CCC2C(=O)N1SC(Cl)(Cl)C(Cl)Cl (stereo not shown)
% Dead cells (vehicle subtracted) (0.1 µM chemical): 0.2061%
% Dead cells (vehicle subtracted) (1 µM chemical): -0.1989%
% Dead cells (vehicle subtracted) (10 µM chemical): 35.235%

CC(C)OP(=S)(OC(C)C)SCCNS(=O)(=O)c1ccccc1
% Dead cells (vehicle subtracted) (10 µM chemical): -0.8074%
